These are literature values, as cited in patent publication US11498903B2, “2-(1,1′-biphenyl)-1H-benzodimidazole derivatives and related compounds as apelin and APJ agonists for treating cardiovascular diseases” (BRISTOL-MYERS SQUIBB COMPANY, priority 2017, dated 2022).

The chains behind the UniProt entries cited, without tags or fusion partners. Where a name states a change or a piece, a line headed by the entry shows the natural chain unless it says otherwise.
UniProt P35414: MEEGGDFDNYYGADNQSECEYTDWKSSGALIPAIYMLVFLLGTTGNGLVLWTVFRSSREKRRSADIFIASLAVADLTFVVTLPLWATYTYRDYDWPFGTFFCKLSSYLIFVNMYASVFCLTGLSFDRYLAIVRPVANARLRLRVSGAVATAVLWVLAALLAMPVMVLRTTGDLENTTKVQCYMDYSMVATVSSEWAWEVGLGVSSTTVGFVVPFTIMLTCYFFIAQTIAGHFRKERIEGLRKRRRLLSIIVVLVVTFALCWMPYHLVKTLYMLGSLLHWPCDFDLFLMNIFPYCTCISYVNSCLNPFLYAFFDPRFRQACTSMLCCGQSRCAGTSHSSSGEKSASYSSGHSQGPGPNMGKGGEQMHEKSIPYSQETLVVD

This series addresses APJ receptor (Homo sapiens, UniProt P35414). As to conditions: reported, Pitkin et al. 2010; cited from earlier work.

In the case of apelin, the binding affinity result is reported as “sub-nanomolar range”.
